# In US5416090A, “Method of treating inflammation” (priority 1992, dated 1995):
# Entries after “also recorded” stand apart in the source; their conditions may differ.
# Columns and labels:
# [1] = system: delayed type hypersensitivity (picryl chloride induced foot pad swelling); experiment: Murine delayed type hypersensitivity (DTH) response, picryl chloride; set-up: species or system mouse (Balb/c); details: mouse, in vivo
# Description: The activity of ergoline compounds was also evaluated in a murine delayed-type hypersensitivity (DTH) assay. The DTH assay was performed in substantial accordance with the method set forth in Example 1. Briefly, mice were sensitized by topical administration of picryl chloride on day 1 of the assay. On day 4 paw size was determined and recorded and the paw was then challenged with picryl chloride. The challenged paw was remeasured on day 5 to quantitate the DTH response via the increase in paw size.
# Male Balb/c mice (Charles River) weighing 20 to 25 g were used in all DTH studies. When adrenalectomized studies were carried out, sham surgery and adrenalectomized mice were obtained from the vendor. Animals were maintained on a 12:12 hour light:dark cycle. Mice were allowed ad lib access for food (Purina lab chow) and water (normal saline for adrenalectomized animals).
# A DTH response was assessed by measuring the degree of rear foot pad swelling induced by picryl chloride. […] On day 3, mice were anesthetized with methoxyflurane, and the baseline rear foot pad thickness was measured with a micrometer (Mitutoyo) in μ, and was recorded in duplicate. […] Twenty-four hours later, the mice were sacrificed by CO2 asphyxiation and each rear foot pad was again measured in duplicate, and any evidence of foot pad swelling was calculated. […]
# [2] = system: graft versus host response (splenomegaly); set-up: species or system mouse (B6C3F1); details: mouse, in vivo
smiles,measurement,setting,value
"CCCN1CCC[C@H]2Cc3[nH]ncc3C[C@@H]21 (racemic) [Compound 5, trans-(±)-5-n-propyl-4,4a,5,6,7,8,8a,9-octahydro-1H-pyrazolo[3,4-g] quinoline]",reduction of paw swelling (DTH),[1],significantly reduced paw swelling
same,immunosuppressive activity / effect on GVH splenomegaly,[2],no immunosuppressive activity; also recorded: Lack of effect
